In paper PMC6355318 (Bioorganic & Medicinal Chemistry Letters, 2019) one finds LLE data, which are given here for nine molecules.

Amino acid sequences for entries named in this document (tags omitted). A change or cut given only in a name is not applied to a line headed by its entry.
UniProt Q8I719: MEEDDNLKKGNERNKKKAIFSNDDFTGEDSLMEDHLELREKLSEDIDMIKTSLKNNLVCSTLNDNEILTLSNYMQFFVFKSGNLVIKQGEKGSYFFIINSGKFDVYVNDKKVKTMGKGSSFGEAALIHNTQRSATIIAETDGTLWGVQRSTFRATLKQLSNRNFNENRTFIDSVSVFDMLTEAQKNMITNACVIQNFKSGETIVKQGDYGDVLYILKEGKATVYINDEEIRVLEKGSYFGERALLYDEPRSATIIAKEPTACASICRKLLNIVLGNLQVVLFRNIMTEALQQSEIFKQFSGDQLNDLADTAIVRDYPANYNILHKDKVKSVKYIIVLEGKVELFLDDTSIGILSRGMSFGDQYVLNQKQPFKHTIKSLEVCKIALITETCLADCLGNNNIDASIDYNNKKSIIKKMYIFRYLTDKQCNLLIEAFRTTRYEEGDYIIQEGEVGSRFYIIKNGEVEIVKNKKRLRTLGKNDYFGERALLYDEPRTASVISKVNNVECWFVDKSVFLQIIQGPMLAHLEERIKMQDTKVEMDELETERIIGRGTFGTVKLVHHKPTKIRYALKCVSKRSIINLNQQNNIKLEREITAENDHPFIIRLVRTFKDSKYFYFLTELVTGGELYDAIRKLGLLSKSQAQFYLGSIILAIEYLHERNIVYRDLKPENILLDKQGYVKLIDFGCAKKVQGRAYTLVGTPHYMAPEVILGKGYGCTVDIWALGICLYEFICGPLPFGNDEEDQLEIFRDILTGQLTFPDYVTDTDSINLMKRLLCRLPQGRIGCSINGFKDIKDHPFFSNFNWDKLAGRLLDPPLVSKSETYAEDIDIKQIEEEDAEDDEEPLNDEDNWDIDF

This assay addresses PfPKG (Plasmodium falciparum, UniProt Q8I719). Type of assay: biochemical. The conditions noted are these: LLE (pIC50 - mLogD).

SMILES strings stand for the structures.

`CN(C)CCNc1ccc2nc(-c3ccc(F)cc3)c(-c3ccnc(N)n3)n2n1` [Compound 26] returned an LLE of 4.8. In the case of `CN1CCC(c2ccc(Nc3nccc(-c4c(-c5ccc(F)cc5)nc5ccccn45)n3)cc2)CC1` [Compound 17] it was 5.0; in that of `CN(C)Cc1ccc2c(c1)nc(-c1ccc(F)cc1)n2-c1ccnc(N)n1` [Compound 23], 6.3; in that of `Fc1ccc(-c2nc3ccccn3c2-c2ccnc(NC3CCOCC3)n2)cc1` [Compound 15], 5.1.

`CN(C)Cc1ccc2c(-c3ccnc(N)n3)c(-c3ccc(F)cc3)nn2c1` [Compound 29] had an LLE of 5.9. `CN(C)CCCNc1nccc(-c2c(-c3ccc(F)cc3)nc3ccccn23)n1` [Compound 14] registered an LLE of 4.3. Then `CN1CCC(n2cc(Nc3nccc(-c4c(-c5ccc(F)cc5)nc5ccccn45)n3)cn2)CC1` [Compound 18], with 4.3; and `CN(C)Cc1cc2nc(-c3ccc(F)cc3)c(-c3ccnc(N)n3)n2cn1` [Compound 19], with 5.2. Molecule `CN(C)Cc1ccn2c(-c3ccnc(N)n3)c(-c3ccc(F)cc3)nc2n1` [Compound 20] yielded an LLE of 5.0.
